# Antibody variant affinities, Ab-91 heavy chain, assay 2

Antigen: PDVDLGDISGINAS, a 14-residue peptide of the SARS-CoV-2 spike HR2 region.

Each scFv is VL, a (GGGGS)3 linker, VH, as in the parent Ab-91, and differs from it in the CDRs of the heavy chain only.
VL: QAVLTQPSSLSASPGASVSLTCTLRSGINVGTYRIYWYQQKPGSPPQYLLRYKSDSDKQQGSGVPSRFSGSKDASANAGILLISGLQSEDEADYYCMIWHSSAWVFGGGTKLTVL
VH: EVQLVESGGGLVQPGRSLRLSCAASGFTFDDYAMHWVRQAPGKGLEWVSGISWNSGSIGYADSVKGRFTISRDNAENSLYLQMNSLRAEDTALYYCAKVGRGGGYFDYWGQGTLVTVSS

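Phage display of a naive human antibody library on the peptide gave the parent. Variants in AAYL51 differ from the parent at up to three CDR positions; double and triple changes were sampled at random. In AlphaSeq, yeast of one mating type display the scFv and yeast of the other type display the target. Pairs that bind mate more often; barcode pairs of the diploids are counted by sequencing. A regression on co-assayed BCL2-family reference pairs converts the normalised counts of each replicate to an apparent Kd. The assay was run in three technical replicates.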

Substitutions are numbered in sequence along the VH above, starting at 1 (not Kabat). All variants listed here change A33 of the VH, counted from its first residue. The read-out is the apparent dissociation constant on a log10 scale (nM): the lower, the stronger. Averages over replicates are reported, and they cover detected replicates only. "not detected" means that the variant was in the library but no mating with the target was seen in any replicate; the authors take this as a sign of poor binding, and no number exists.

changes,mean log10 Kd (nM),replicates with signal,control signals
A33Q/G56W/V99C,not detected,0 of 3,0 of 9
F29W/A33I/S52I,not detected,0 of 3,0 of 9
A33C/S63M/R101H,1.78,3 of 3,0 of 9
A33Q/H35S/I58H,not detected,0 of 3,1 of 9
A33R/W53V/D107V,not detected,0 of 3,1 of 9
D31I/A33P/W53I,3.17,1 of 3,1 of 9
A33V/H35N,not detected,0 of 3,1 of 9
Y32K/A33E/D62I,not detected,0 of 3,2 of 9
D31F/A33W/G56T,not detected,0 of 3,1 of 9
G26H/A33C/N54G,not detected,0 of 3,0 of 9
T28N/A33V/I51W,6.00,2 of 3,5 of 9
A33S/S63L,0.71,3 of 3,2 of 9
A33R/I58A/G103A,not detected,0 of 3,4 of 9
A33S/Y105G/D107A,2.42,3 of 3,1 of 9
A33R/R101Q/G102A,not detected,0 of 3,0 of 9
A33F/G56V/G102E,not detected,0 of 3,0 of 9
A33V/S52D/S63R,not detected,0 of 3,1 of 9
A33R/H35W,5.10,3 of 3,7 of 9
A33I/G103P/F106H,not detected,0 of 3,1 of 9
F27R/Y32H/A33M,3.96,2 of 3,1 of 9
A33W/I58H/Y108G,not detected,0 of 3,1 of 9
A33V/S55L,not detected,0 of 3,4 of 9
T28W/A33T/S63Q,4.30,2 of 3,2 of 9
A33Q/S52K/Y108L,4.13,1 of 3,5 of 9
D31E/A33E/W53T,not detected,0 of 3,0 of 9
A33T/W53D/S63F,4.89,2 of 3,1 of 9
D31R/A33K/D62Y,4.79,1 of 3,0 of 9
A33C/N54H/R101T,not detected,0 of 3,0 of 9
A33D/S55I,5.23,3 of 3,2 of 9
D30S/D31C/A33T,not detected,0 of 3,0 of 9
A33T/G103Q/D107M,4.54,3 of 3,1 of 9
T28Q/A33I/G102P,not detected,0 of 3,0 of 9
A33H/S57M/R101Q,5.30,3 of 3,2 of 9
F29V/A33T/K65F,4.69,1 of 3,3 of 9
A33R/S57M/D62G,6.25,1 of 3,1 of 9
A33D/M34D/V99D,4.83,1 of 3,4 of 9
F29M/A33V/I58V,2.66,3 of 3,1 of 9
A33W/G100Q/D107L,not detected,0 of 3,0 of 9
D30K/A33T/I58N,4.67,2 of 3,2 of 9
T28Q/A33P/M34S,not detected,0 of 3,2 of 9
G26F/A33Y/G59W,3.58,1 of 3,0 of 9
A33F/S52E/S57T,not detected,0 of 3,0 of 9
G26F/A33T/M34L,4.83,3 of 3,7 of 9
Y32Q/A33G/Y60H,not detected,0 of 3,3 of 9
D30I/A33F/Y60H,4.62,2 of 3,2 of 9
A33K/I58V/G102T,not detected,0 of 3,1 of 9
A33S/A61M/V64K,5.75,3 of 3,6 of 9
A33V/G104I/F106Y,not detected,0 of 3,1 of 9
T28Q/A33W/S52W,4.89,1 of 3,0 of 9
T28L/A33N/G100Q,3.73,1 of 3,0 of 9
T28V/A33S/W53D,3.34,1 of 3,0 of 9
Y32S/A33P/G59A,not detected,0 of 3,0 of 9
A33D/D107L,4.00,2 of 3,1 of 9
A33C/V99W/G100H,not detected,0 of 3,0 of 9
F27S/T28Y/A33W,not detected,0 of 3,0 of 9
T28I/A33C/D107G,not detected,0 of 3,1 of 9
D30T/Y32V/A33C,5.57,2 of 3,3 of 9
A33W/D62L/G103M,not detected,0 of 3,0 of 9
D30V/A33D/G102I,3.50,1 of 3,0 of 9
A33V/N54I/S57C,5.23,2 of 3,7 of 9
F27G/A33W/W53A,4.28,1 of 3,1 of 9
A33Q/S52P/N54P,not detected,0 of 3,2 of 9
A33E/V64G/G104D,not detected,0 of 3,3 of 9
A33C/G104L,4.95,2 of 3,2 of 9
A33L/Y60H/A61V,not detected,0 of 3,0 of 9
A33P/W53L/Y60M,not detected,0 of 3,3 of 9
Y32G/A33W/S63N,5.24,2 of 3,4 of 9
A33E/G50T/Y60N,not detected,0 of 3,3 of 9

Picked from the list: the 8 lowest averages where every replicate gave a value.

changes,mean log10 Kd (nM),replicates with signal,control signals
A33S/S63L,0.71,3 of 3,2 of 9
A33C/S63M/R101H,1.78,3 of 3,0 of 9
A33S/Y105G/D107A,2.42,3 of 3,1 of 9
F29M/A33V/I58V,2.66,3 of 3,1 of 9
A33T/G103Q/D107M,4.54,3 of 3,1 of 9
G26F/A33T/M34L,4.83,3 of 3,7 of 9
A33R/H35W,5.10,3 of 3,7 of 9
A33D/S55I,5.23,3 of 3,2 of 9

Empty control strains, which show no peptide, gave a signal in 21% of pairings with library AAYL51; the median was 4.54 and 95% of these signals were weaker than 3.26. No background was subtracted. For each scFv, signals with the empty controls are counted beside the result. For reference, the parent read 1.86 as the reference entry and 0.88 as a member of this library.

Values reported by Engelhart et al. 2022, doi:10.1038/s41597-022-01779-4 (FLAb copy).